Legend:
[1] = tested on: caveolin-1, IRβ and Glut4 in DIGs of rat adipocytes; details: FIG. 5
[2] = tested on: GPI-PLC in isolated rat adipocytes; details: for stimulation of GPI-PLC activity: isolated rat adipocytes, FIG. 4 Panels E, G
[3] = tested on: GPI-PLC in hcDIGs of rat adipocytes; details: for stimulation of GPI-PLC activity preserved in hcDIGs: hcDIGs prepared from pretreated adipocytes, Panel C; for activation of GPI-PLC by direct incubation of hcDIGs: hcDIGs prepared from untreated adipocytes, Panel A

Question: With `CCC1=C(C)CN(C(=O)NCCc2ccc(S(=O)(=O)NC(=O)N[C@H]3CC[C@H](C)CC3)cc2)C1=O` [glimepiride] as the molecule, how does the “effect on distribution of caveolin-1, IRβ and Glut4” value [1] read?
Answer: The value was “not affected”.

Question: What does the source list for `CCC1=C(C)CN(C(=O)NCCc2ccc(S(=O)(=O)NC(=O)N[C@H]3CC[C@H](C)CC3)cc2)C1=O` [Glimepiride, glimepiride]?
Answer: stimulation of GPI-PLC activity [2]: up to 5 fold; stimulation of GPI-PLC activity preserved in hcDIGs [3]: 3 fold; activation of GPI-PLC by direct incubation of hcDIGs [3]: up to 4 fold

Question: How did the “effect on distribution of caveolin-1, IRβ and Glut4” value [1] turn out when `CCCCCCCCCCCCP1(=O)O[C@@H]2[C@H](O)[C@@H](O)[C@H](O)[C@@H](O)[C@@H]2O1` (stereo partly drawn) [GPI-2350, myo-inositol-1,2-cyclo-dodecylphosphonic acid] was run?
Answer: Its value is “did not alter significantly”.

Question: And the “effect on GPI-PLC in intact rat adipocytes” value [2]?
Answer: The value was “almost completely down regulates”.

Question: For Insulin: Human recombinant insulin, which “stimulation of GPI-PLC activity” value [2] is on record?
Answer: The value was ≤ 3 fold.

Question: What about the “stimulation of GPI-PLC activity preserved in hcDIGs” value [3] of the same molecule?
Answer: Its value is 1.7 fold.

Question: And the “activation of GPI-PLC by direct incubation of hcDIGs” value [3]?
Answer: Its value is “but not insulin”.

Source: US8017350B2, “Glimepiride- and insulin-induced glycosylphosphatidylinositol-specific phospholipase C regulation” (Sanofi-Aventis Deutschland GmbH, priority 2004, dated 2011)
